Experimental data from US7432260B2, “Pyrimidine compounds” (Cyclacel Limted, priority 2002, dated 2008).
Like-named read-outs stand apart in the source and are kept apart here.

Tests used:
[1] = biological target: CDK2/cyclin A (Homo sapiens, UniProt P24941); test: Kinase assay CDK2/cyclin A; type: biochemical
Procedure: (§1) Kinase assays. […] This was achieved by measurement of incorporation of radioactive phosphate from ATP into appropriate polypeptide substrates. Recombinant protein kinases and kinase complexes were produced or obtained commercially. Assays were performed using 96-well plates and appropriate assay buffers (typically 25 mM β-glycerophosphate, 20 mM MOPS, 5 mM EGTA, 1 mM DTT, 1 mM […], pH 7.4), into which were added 2-4 μg of active enzyme with appropriate substrates. The reactions were initiated by addition of Mg/ATP mix (15 mM MgCl2+100 μM ATP with 30-50 kBq per well of [γ-^32P]-ATP) and mixtures incubated as required at 30° C. Reactions were stopped on ice, followed by filtration through p81 filterplates or GF/C filterplates (Whatman Polyfiltronics, Kent, UK). After washing 3 times with 75 mM aq orthophosphoric acid, plates were dried, scintillant added and incorporated radioactivity measured in a scintillation counter (TopCount, Packard Instruments, Pangbourne, Berks, UK). Compounds for kinase assay were made-up as 10 mM stocks in DMSO and diluted into 10% DMSO inrassay buffer.

[2] = biological target: CDK2/cyclin E (Homo sapiens, UniProt P24941); test: Kinase assay CDK2/cyclin E; type: biochemical
Procedure: as §1

[3] = Table 2, read-out: Kinase Inhibition IC50 CDK2 cyclin A
[4] = Table 2, read-out: Kinase Inhibition IC50 CDK2 cyclin E

SMILES	IC50 [1, 3] [nM]	IC50 [2, 4] [nM]	IC50 ([1]; Table 3 selectivity panel, read-out: Kinase specificity IC50 CDK2/A) [nM]	IC50 ([2]; Table 3 selectivity panel, read-out: Kinase specificity IC50 CDK2/E) [nM]
CNc1nc(C)c(-c2ccnc(Nc3ccc(N4CCOCC4)cc3)n2)s1 [Compound 3, [4-(2-N-Methylamino-4-methyl-thiazol-5-yl)-pyrimidin-2-yl]-(4-morpholinophenyl)-amine]	4700	430	440	680
Cc1nc(C)c(-c2ccnc(Nc3ccc(N4CCN(S(C)(=O)=O)CC4)cc3)n2)s1 [Compound 10, [4-(2,4-Dimethyl-thiazol-5-yl)-pyrimidin-2-yl]-[4-(4-methanesulfonyl-piperazin-1-yl)-phenyl]-amine]	4400	15000		
CNc1nc(C)c(-c2ccnc(Nc3cccc(CNC(C)=O)c3)n2)s1 [Compound 63, N-{3-[4-(4-Methyl-2-methylamino-thiazol-5-yl)-pyrimidin-2-ylamino]-benzyl}-acetamide]		1700		

The next lines start with results.

IC50 [1, 3] [nM]	IC50 [2, 4] [nM]	SMILES	IC50 ([1]; Table 3 selectivity panel, read-out: Kinase specificity IC50 CDK2/A) [nM]	IC50 ([2]; Table 3 selectivity panel, read-out: Kinase specificity IC50 CDK2/E) [nM]
2200	3900	Cc1nc(C)c(-c2ccnc(Nc3ccc(N4CCOCC4)cc3)n2)s1 [Compound 2, [4-(2,4-Dimethyl-thiazol-5-yl)-pyrimidin-2-yl]-(4-morpholin-4-yl-phenyl)-amine]		
1100	900	CCNc1nc(C)c(-c2ccnc(Nc3ccc(N4CCOCC4)cc3)n2)s1 [Compound 4, [4-(2-Ethylamino-4-methyl-thiazol-5-yl)-pyrimidin-2-yl]-(4-morpholin-4-yl-phenyl)-amine]		
1100	870	CC(=O)N1CCN(c2ccc(Nc3nccc(-c4sc(C)nc4C)n3)cc2)CC1 [Compound 5, 1-(4-{4-[4-(2,4-Dimethyl-thiazol-5-yl)-pyrimidin-2-ylamino]-phenyl}-piperazin-1-yl)-ethanone]		
2800	600	CNc1nc(C)c(-c2ccnc(Nc3ccc(N4CCN(C(C)=O)CC4)cc3)n2)s1 [Compound 61, 1-(4-{4-[4-(4-Methyl-2-methylamino-thiazol-5-yl)-pyrimidin-2-ylamino]-phenyl}-piperazin-1-yl)-ethanone]		
